## Ab-14 heavy chain CDR variants: yeast mating affinities

Source: Li et al. 2023 (doi:10.1038/s41467-023-39022-2), MIT Lincoln Laboratory and A-Alpha Bio; data file from the FLAb repository.

The target is the same throughout: PDVDLGDISGINAS, from the HR2 region of SARS-CoV-2 spike.

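This is the validation round: designs drawn from the data on random variants, tested in the same kind of assay. Several design methods are mixed in this list. In AlphaSeq, yeast of one mating type display the scFv and yeast of the other type display the target. Pairs that bind mate more often; barcode pairs of the diploids are counted by sequencing. Each replicate has its own calibration line, from reference interactions of the BCL2 family. The assay was run in six technical replicates.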

Each scFv is VH, a 15-residue (Gly4Ser)3 linker, VL, as in the parent Ab-14, and differs from it in the CDRs of the heavy chain only.
VH: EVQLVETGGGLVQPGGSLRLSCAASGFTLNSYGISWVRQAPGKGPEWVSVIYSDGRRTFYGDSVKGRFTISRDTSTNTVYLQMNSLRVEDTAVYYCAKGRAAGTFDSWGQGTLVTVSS
VL: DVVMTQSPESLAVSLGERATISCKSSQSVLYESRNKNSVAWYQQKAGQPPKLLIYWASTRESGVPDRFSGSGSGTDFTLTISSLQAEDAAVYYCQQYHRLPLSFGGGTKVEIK

Each variant is given by its three heavy chain CDRs, as the data file delimits them; those of the parent are GFTLNSYGIS, VIYSDGRRTFYGDSVK, GRAAGTFDS.
Values are log10 of the apparent Kd in nM; lower means stronger binding.
A mean of the replicates is given; it leaves out those without a signal.
"not detected" means that the variant was in the library but no mating with the target was seen in any replicate; the authors take this as a sign of poor binding, and no number exists.

| # | log10 Kd (nM), mean | seen in | empty controls | CDR-H1 | CDR-H2 | CDR-H3 |
|---|---|---|---|---|---|---|
| 1 | not detected | 0/6 | 0/18 | DFTLTEYGIS | VIYSDGRRTFYGDSVK | GRARGTFDS |
| 2 | not detected | 0/6 | 0/18 | GFTLNSYGIS | VKYSDGRRTFYDDSVK | GQLAGTADS |
| 3 | -0.42 | 6/6 | 0/18 | GFDINEYGIS | VIYADGRRTAYADSVK | GEAAGTFDE |
| 4 | 1.51 | 2/6 | 0/18 | GFDLEEFGIS | VIYADGTRTMYLPTVK | GVNGGTFDM |
| 5 | 1.60 | 6/6 | 1/18 | GFSLNSYGIS | VIYSDGMRTFYADSVK | GRTAGTFDS |
| 6 | -0.07 | 6/6 | 1/18 | GFDLNEYGIS | VIYADGKRTFYADSVK | GQAAGTFDI |
| 7 | -0.14 | 6/6 | 0/18 | GFSLNSYGIS | VIYSDGRRTFYTDSVK | GMEAGTFDS |
| 8 | -0.30 | 6/6 | 0/18 | GFDLNSYGIS | VIYSDGRRTFYVDSVK | GKEAGTFDS |
| 9 | not detected | 0/6 | 0/18 | GFDIDEMGIS | VIYADGQRKAYTENVK | GNSMGMTVA |
| 10 | -0.75 | 6/6 | 0/18 | GFDLNEYGIS | VIYADGMRSAYADSVK | GQNAGTFDV |
| 11 | -0.58 | 6/6 | 0/18 | GFDLNEYGIS | VIYADGRRTAYSDSVK | GQLAGTFDT |
| 12 | 1.11 | 6/6 | 0/18 | GFQLNSYGIS | VIYSDGKRTFYGDSVK | GRTAGTFDS |
| 13 | -0.18 | 6/6 | 0/18 | GFDLNSYGIS | VIYSDGRRTFYQDKVK | GQTAGTFDD |
| 14 | 0.75 | 6/6 | 0/18 | GFTLNDYGIS | VIYSDGRRTFYGDSVK | GRTAGTFTS |
| 15 | 1.93 | 1/6 | 2/18 | GFNLDEYGIS | VIYADGRRTAYADSVK | NSNMSGMVT |
| 16 | 0.59 | 6/6 | 0/18 | GFDLNEYGIS | VIYSDGRRTMYGDSVK | GRAAGTFDS |
| 17 | 2.47 | 1/6 | 1/18 | GETLNTYGIS | VIYSDGRRTMYGDSVK | GQAAGSFDS |
| 18 | -0.63 | 6/6 | 0/18 | GFDLNEYGIS | VIYADGRRTFYADSVK | GNTAGTFDI |
| 19 | not detected | 0/6 | 0/18 | GFTLNQYGIS | VIYSDGRDTFYGDSVK | GREAGTNDS |
| 20 | -0.66 | 1/6 | 0/18 | GFLLNDYGIS | VIYSDGRRTEYGDSVK | GRAAGTFDS |
| 21 | 0.31 | 6/6 | 0/18 | GFSLNSYGIS | VIYSDGQRTFYADSVK | GRAAGTFDS |
| 22 | 1.21 | 3/6 | 0/18 | GFSLNMYGIS | VIYSDGRRTFYVDSVK | GRTAGTFDS |
| 23 | -0.55 | 6/6 | 0/18 | GFDLNEYGIS | VIYADGRRTFYADSVK | GQEAGTFNM |
| 24 | not detected | 0/6 | 0/18 | GFQLDSYGIS | VIYSDGRRTFYGDSVD | GRAKGTFWS |
| 25 | not detected | 0/6 | 0/18 | GFSLNCYGIS | VIYSDGRRTFYIDSVK | GNAAGTFDS |
| 26 | -0.70 | 6/6 | 0/18 | GFNLNEYGIS | VIYADGRRTFYADDVK | GEVAGTFDL |
| 27 | not detected | 0/6 | 1/18 | GYDIQDYGIS | VIYADGVRTAYHDSVK | GQMAGFFIL |
| 28 | 1.35 | 6/6 | 0/18 | GFTLNSYGIS | VIYSDGKRTFYGDSVK | GRQAGTFDS |
| 29 | 0.47 | 6/6 | 0/18 | EFTLNSYGIS | VIYSDGRRTFYADSVK | GRIAGTFDS |
| 30 | 0.96 | 6/6 | 0/18 | FQLLDDYGIS | VIYADGKRVAYVADVK | GNVAGTFDV |
| 31 | 2.21 | 2/6 | 0/18 | GFMLNWYGIS | VIYSDGRRTQYIDSVK | GRAAGTFDS |
| 32 | not detected | 0/6 | 0/18 | GFDLEEYGIS | VIYADGLRSYYADNFK | GWNSGTIAV |
| 33 | -0.63 | 6/6 | 0/18 | GFDLDEYGIS | VIYADGSRTAYADSVK | GNQAGTFDV |
| 34 | 0.13 | 6/6 | 0/18 | GFQLNEYGIS | VIYSDGRRTFYADQVK | GTAAGTFDS |
| 35 | 0.01 | 6/6 | 0/18 | GFDLEDYGIS | VIYADGQRTAYADSVK | GQNAGTFDV |
| 36 | -0.58 | 4/6 | 0/18 | GFTLNDYGIS | VIYSDGRRTFYGDSVK | GRTAGTFDV |
| 37 | 1.56 | 3/6 | 0/18 | GFTLNEYGIS | VIYSDGRRTFYGDNVK | GRAAGTFDS |
| 38 | 2.55 | 3/6 | 0/18 | GFTLNSYGIS | VIYSDGRRTAYNDSVK | GRAAGTFDS |
| 39 | -0.33 | 6/6 | 0/18 | GFTLNSYGIS | VIYADGRRTFYGDSVK | GTAAGTFDM |
| 40 | 0.66 | 6/6 | 0/18 | GFELNSYGIS | VIYSDGRRTAYGDHVK | GRNAGTFDS |
| 41 | not detected | 0/6 | 0/18 | GKSLNSYGIS | VIYSDGRRTFYGDQVK | GQTAGTFDS |
| 42 | not detected | 0/6 | 0/18 | GFDLNSYGIS | VIYSDGRRTFYGDSVK | GRAAGTFHS |
| 43 | -0.35 | 6/6 | 0/18 | GFDLNEYGIS | VIYADGRRTAYLDSVK | GEAAGTFDM |
| 44 | -0.10 | 6/6 | 1/18 | GFDLNEYGIS | VIYADGKRTAYIDSVK | GNQAGTFDQ |
| 45 | 0.43 | 5/6 | 0/18 | GFNLDEYGIS | VIYADGKRTAYADSVK | GETAGTFDV |
| 46 | 1.40 | 4/6 | 0/18 | GFTLNSYGIS | VIYSDGRRTFYGDKVK | GRAAGTFDT |
| 47 | 2.06 | 1/6 | 0/18 | GFTLNSYGIS | VIYSDGRRTFYGDSVK | GRAACTFDS |
| 48 | 0.77 | 5/6 | 0/18 | GFDLNEYGIS | VIYADGVRTAYTDSVK | GNQAGTFDV |
| 49 | 1.36 | 6/6 | 0/18 | GLTLNDYGTS | VIYSDGYRTFYQDSVK | GRAAGTFDS |
| 50 | -0.44 | 6/6 | 0/18 | GFDLDEYGIS | VIYADGMRTAYTDSVK | GNVAGTFDT |
| 51 | not detected | 0/6 | 1/18 | GTALNSYGIS | VIYSDGRRTFYGDAVK | GRWAGTFDS |
| 52 | 2.38 | 6/6 | 1/18 | GFTLESYGIS | VIYSDGRRTFYTDSVK | GQGAGTFDS |
| 53 | -0.19 | 6/6 | 1/18 | GFDLNEYGIS | VIYADGKRTAYSDSVK | GETAGTFDV |
| 54 | not detected | 0/6 | 0/18 | GFTLNSYGIS | VIYSDGRRTFYSDSRK | GRKGGTFDS |
| 55 | -0.59 | 6/6 | 0/18 | GFDLNEYGIS | VIYADGMRTFYADSVK | GEAAGTFDV |
| 56 | not detected | 0/6 | 0/18 | GFCLNDYGIS | VIYSDGRRTWYIDSVK | GRAAGTFDS |
| 57 | 0.22 | 6/6 | 0/18 | GFDLNEYGIS | VIYADGRRTFYTDDVK | GEFAGTFDL |
| 58 | 0.85 | 6/6 | 2/18 | MFELNSYGIS | VIYSDGRRTFYADSVK | GRTAGTFDS |
| 59 | 1.49 | 5/6 | 0/18 | GFGLNSYGIS | VIYSDGRRTFYGDSVK | GYAAGTFDS |
| 60 | 0.52 | 6/6 | 0/18 | GFELNEYGIS | VIYSDGRRTFYHDSVK | GRQAGTFDS |
| 61 | 0.06 | 6/6 | 0/18 | GFELNDYGIS | VIYSDGRRTFYKDSVK | GRTAGTFDS |
| 62 | not detected | 0/6 | 0/18 | GFTLNSYGIS | VIYSDGRRTFYQDSVK | GQTAGTFDS |
| 63 | -0.41 | 6/6 | 0/18 | GFDLDEYGIS | VIYADGMRTAYADSVK | GTNAGTFDI |
| 64 | not detected | 0/6 | 0/18 | GFTLNKYGIS | VIYSIGRRTFYGDSVK | GRAAVTFDQ |
| 65 | -0.80 | 6/6 | 0/18 | GFDLDEYGIS | VIYADGMRTAYADSVK | GTNAGTFDQ |
| 66 | -0.56 | 6/6 | 0/18 | GFDLNEYGIS | VIYADGMRTAYVDNVK | GENAGTFDV |
| 67 | not detected | 0/6 | 0/18 | GKKLDEYGIS | VIYADGKRNFYSNSVK | GQLAGGLFV |
| 68 | not detected | 0/6 | 0/18 | GYDINEYGIS | VIYADGQRTSYVQSVK | GAGDITAVV |
| 69 | 0.11 | 6/6 | 0/18 | GFDLDEYGIS | VIYADGRRTAYKDSVK | GSNAGTFDM |
| 70 | 0.16 | 6/6 | 0/18 | GFDLNEYGIS | VIYADGMRTAYADNVK | GNTAGTFDL |
| 71 | not detected | 0/6 | 0/18 | GFDLNSYGIS | VIYSDGRRTFYGDSVK | GRAAGWHNS |
| 72 | -0.36 | 6/6 | 0/18 | GFDLNEYGIS | VIYADGRRSFYADSVK | GQLAGTFDK |
| 73 | -0.25 | 6/6 | 1/18 | GFQLNEYGIS | VIYSDGRRTFYHDSVK | GKAAGTFDS |
| 74 | 0.36 | 6/6 | 1/18 | GFDLNEYGIS | VIYADGVRTAYADKVK | GENAGTFDI |
| 75 | 0.00 | 6/6 | 0/18 | GFDLNEYGIS | VIYADGRRTAYADDVK | GNTAGTFDQ |
| 76 | not detected | 0/6 | 0/18 | GFTLNSYGIS | VIYSDGRRTFYGDSFV | GRAAGTFKS |
| 77 | 1.59 | 4/6 | 0/18 | GFTLNDYGIS | VIYSDGRRTSYQDSVK | GRAAGTFDS |
| 78 | not detected | 0/6 | 0/18 | MFTLNDYGIS | VIYSDGRRTQYIDSVK | GRAAGTFDS |
| 79 | 0.25 | 6/6 | 0/18 | GFTLNEYGIS | VIYSDGRRTFYGDDVK | GRTAGTFDS |
| 80 | -0.82 | 6/6 | 0/18 | GFDLDEYGIS | VIYADGRRTFYVDSVK | GQAAGTFDQ |

6 of these entries, quoted again:

CDR-H1,CDR-H2,CDR-H3,"log10 Kd (nM), mean",seen in,empty controls
GFTLNSYGIS,VIYSDGKRTFYGDSVK,GRQAGTFDS,1.35,6/6,0/18
MFELNSYGIS,VIYSDGRRTFYADSVK,GRTAGTFDS,0.85,6/6,2/18
GFDLNSYGIS,VIYSDGRRTFYGDSVK,GRAAGTFHS,not detected,0/6,0/18
GFTLNSYGIS,VIYSDGRRTFYSDSRK,GRKGGTFDS,not detected,0/6,0/18
GFSLNSYGIS,VIYSDGMRTFYADSVK,GRTAGTFDS,1.60,6/6,1/18
GFDLNEYGIS,VIYADGRRSFYADSVK,GQLAGTFDK,-0.36,6/6,0/18

Empty control strains, which show no peptide, gave a signal in 1% of pairings with all heavy chain designs; the median was 2.08 and 95% of these signals were weaker than 0.84. No background was subtracted. Also given: how often the same scFv was detected with the empty control strains.
A sequence measured in both rounds can read differently, since the two assays cover different ranges.
In the paper, a design with two or fewer of six values counts as a poor binder.
Of ten entries with the parent sequence, four were seen in most replicates (averages 0.34 to 2.37), three in one and three in none, so single entries are noisy.